Reference: ChEMBL document CHEMBL1127535, “Molecular similarity, quantitative chirality, and QSAR for chiral drugs” (J Med Chem, 1994)

Chains of the proteins cited; added tags and fusions are not shown.
UniProt P61169, whole entry: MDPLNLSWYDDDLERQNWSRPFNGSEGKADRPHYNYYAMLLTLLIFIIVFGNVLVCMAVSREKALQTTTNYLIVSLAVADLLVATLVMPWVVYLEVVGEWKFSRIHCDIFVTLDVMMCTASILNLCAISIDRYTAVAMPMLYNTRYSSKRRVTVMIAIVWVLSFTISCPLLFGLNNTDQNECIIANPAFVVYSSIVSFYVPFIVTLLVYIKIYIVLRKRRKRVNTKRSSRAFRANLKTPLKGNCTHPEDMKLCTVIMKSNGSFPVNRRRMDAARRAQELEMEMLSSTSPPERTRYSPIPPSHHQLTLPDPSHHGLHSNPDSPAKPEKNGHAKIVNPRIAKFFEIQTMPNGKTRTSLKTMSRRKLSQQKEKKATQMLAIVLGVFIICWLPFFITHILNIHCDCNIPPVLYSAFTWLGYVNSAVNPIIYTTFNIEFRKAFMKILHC
UniProt Q9R0C9, whole entry: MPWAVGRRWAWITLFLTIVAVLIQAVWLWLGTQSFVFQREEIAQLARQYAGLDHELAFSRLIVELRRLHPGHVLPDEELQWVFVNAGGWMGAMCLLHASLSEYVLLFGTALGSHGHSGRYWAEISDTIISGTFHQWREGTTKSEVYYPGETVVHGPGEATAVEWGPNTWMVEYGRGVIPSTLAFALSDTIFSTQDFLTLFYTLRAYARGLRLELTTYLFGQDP

Tests used:
[1] = biological target: D(2) dopamine receptor (Rattus norvegicus) (UniProt P61169); experiment: Displacement of spiperone from dopamine receptor D2 of rat brain membrane
[2] = biological target: Sigma non-opioid intracellular receptor 1 (Rattus norvegicus) (UniProt Q9R0C9); experiment: Displacement of (+)-3PPP from sigma receptor of rat brain membrane

## CN1CCC[C@@H](c2cccc(O)c2)C1
[1]
  Log IC50: 0.29 µM
[2]
  Log IC50: 0.28 µM
